Data published in ChEMBL document CHEMBL1128295 (J Med Chem, 1995).

What was measured:
[1] = biological target: Histamine H1 receptor (Cavia porcellus) (UniProt P31389); assay: Contractile effect on isolated guinea pig ileal segments by H1 (histamine) receptor agonism.; format: functional
[2] = tested on: Histamine H1 receptor (Mus musculus); assay: In vivo binding of H1 receptor Agonists measured by binding of [3H]mepyramine to Mouse cerebral cortex at the dosage of ( 3 mg/kg(no. of mice treated= 5 ); conditions: at 3 mg/kg
[3] = biological target: Histamine H1 receptor (Cavia porcellus) (UniProt P31389); assay: The H1 receptor-mediated nature of the ileum contractionhas been verified by competition experiments with the H1 receptor antagonist mepyramine; format: functional, tissue-based
[4] = biological target: Histamine H1 receptor (Cavia porcellus) (UniProt P31389); assay: Contractile effect on isolated guinea pig ileal segments is a measure of H1 (histamine) receptor agonistic activity relative to histamine.; format: functional
[5] = biological target: Histamine H1 receptor (Cavia porcellus) (UniProt P31389); assay: Contractile effects on guinea pig aorta as histamine H1 receptor agonism; format: functional, tissue-based
Summary of the method: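 Endothelium-denuded 4–6 mm guinea pig thoracic aortic rings, isometric (preload 10 mN), modified Krebs-Henseleit, 37 °C, 95% O2/5% CO2. […] Cumulative curves with 30 μM corticosterone, 100 μM cimetidine, 0.1 μM (R,S)-propranolol and phentolamine present.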

[6] = biological target: Histamine H1 receptor (Mus musculus) (UniProt P70174); assay: In vivo binding of H1 receptor Agonists measured by binding of [3H]mepyramine to Mouse cerebral cortex at the dosage of ( 30 mg/kg(no. of mice treated= 5 ); conditions: at 30 mg/kg
[7] = biological target: Histamine H1 receptor (Mus musculus) (UniProt P70174); assay: In vivo binding of H1 receptor Agonists measured by binding of [3H]mepyramine to Mouse cerebral cortex at the dosage of ( 10 mg/kg(no. of mice treated=5 ); conditions: at 10 mg/kg
[8] = biological target: Histamine H1 receptor (Mus musculus) (UniProt P70174); assay: In vivo binding of H1 receptor Agonists measured by binding of [3H]mepyramine to Mouse cerebral cortex at the dosage of ( 100 mg/kg(no. of mice treated= 4 ); conditions: at 100 mg/kg

pD2 [1]: 6.75 | Control [2]: 106% | pKb [3]: 9.17 | Relative activity [4]: 112% | pKb [5]: 8.9 | Control [6]: 98% | Control [7]: 98% | Control [8]: 98%
SMILES: NCCc1c[nH]c(-c2cccc(Br)c2)n1
